Data taken from paper PMC7341468 (BMC Pharmacology & Toxicology, 2020).

Settings: for Initial Cmin, median (interquartile range): serum, fourth day (72 h after first dose), FPIA; for Adjusted odds ratio (95%CI) for teicoplanin initial Cmin ≥20 μg/mL: multivariate analysis; for Crude odds ratio (95%CI) for teicoplanin initial Cmin ≥20 μg/mL: univariate analysis; for Teicoplanin max Cmin: conventional regimen
[1] = factor: Intensive care unit stay (> 3 days)
[2] = factor: Total parenteral nutrition
[3] = factor: eGFR≥60 mL/min/1.73 m^2

Question: With teicoplanin as the substance, how does the “Initial Cmin, median (interquartile range)” value (conventional high loading dose regimen (10 mg/kg, five doses in initial 3 days, adjusted to eGFR), n = 363) read?
Answer: Its value is 18.3 (15.1–22.8) μg/mL.

Question: And the “Initial Cmin, median (interquartile range)” value (enhanced high loading dose regimen (12 mg/kg, five doses in initial 3 days, adjusted to eGFR), n = 149)?
Answer: The value was 24.9 (20.8–28.3) μg/mL.

Question: And the “Patients with Cmin ≥ 60 μg/mL” value (enhanced high loading dose regimen, 149 patients)?
Answer: The value was “no patient experienced a Cmin ≥ 60 μg/mL”.

Question: What about the “Patients with initial Cmin ≥ 40 μg/mL” value (enhanced high loading dose regimen, n = 149, 5 patients) of the same substance?
Answer: The value was 5 (3.4%).

Question: And the “Patients with initial Cmin < 20 μg/mL” value (enhanced high loading dose regimen, n = 149, 32 patients)?
Answer: The value was 32 (21.5%).

Question: And the “Patients with initial Cmin 20–40 μg/mL (target range)” value (enhanced high loading dose regimen, n = 149, 112 patients)?
Answer: The value was 112 (75.2%).

Question: And the “Adjusted odds ratio (95%CI) for teicoplanin initial Cmin ≥20 μg/mL” value (“Adjusted odds ratio (95%CI)” for short) (factor: APACHE II score ≥ 15)?
Answer: The value was 0.78 (0.44–1.35).

Question: And the “Crude odds ratio (95%CI) for teicoplanin initial Cmin ≥20 μg/mL” value (from here on “Crude odds ratio (95%CI)”) (factor: APACHE II score ≥ 15)?
Answer: Its value is 0.56 (0.38–0.84).

Question: And the “Crude odds ratio (95%CI)” value (factor: Age (> 65 years))?
Answer: The value was 0.88 (0.62–1.26).

Question: And the “Crude odds ratio (95%CI)” value (factor: Anticancer therapy)?
Answer: The value was 1.15 (0.63–2.10).

Question: What about the “Adjusted odds ratio (95%CI)” value (factor: Body mass index ≥25) of the same substance?
Answer: Its value is 2.33 (1.24–4.38).

Question: What about the “Crude odds ratio (95%CI)” value (factor: Body mass index ≥25) of the same substance?
Answer: The value was 1.73 (1.04–2.87).

Question: What about the “Crude odds ratio (95%CI)” value (factor: Body mass index< 18.5) of the same substance?
Answer: Its value is 0.79 (0.52–1.18).

Question: What about the “Adjusted odds ratio (95%CI)” value (factor: Chronic renal failure) of the same substance?
Answer: Its value is 0.62 (0.38–1.03).

Question: And the “Crude odds ratio (95%CI)” value (factor: Chronic renal failure)?
Answer: Its value is 0.55 (0.36–0.83).

Question: What about the “Crude odds ratio (95%CI)” value (factor: Chronic respiratory disease) of the same substance?
Answer: Its value is 0.99 (0.46–2.15).

Question: And the “Crude odds ratio (95%CI)” value (factor: Collagen disease)?
Answer: Its value is 0.80 (0.45–1.42).

Question: And the “Crude odds ratio (95%CI)” value (factor: Complicated MRSA infections)?
Answer: Its value is 1.13 (0.73–1.75).

Question: What about the “Crude odds ratio (95%CI)” value (factor: Diabetes mellitus) of the same substance?
Answer: Its value is 0.98 (0.65–1.49).

Question: And the “Adjusted odds ratio (95%CI)” value (factor: Enhanced high loading dose regimen)?
Answer: Its value is 7.75 (4.62–12.99).

Question: What about the “Crude odds ratio (95%CI)” value (factor: Heart disease) of the same substance?
Answer: Its value is 1.09 (0.76–1.55).

Question: What about the “Crude odds ratio (95%CI)” value (factor: Immunosuppressive therapy) of the same substance?
Answer: Its value is 1.70 (0.77–3.76).

Question: And the “Crude odds ratio (95%CI)” value (factor: Inflammatory bowel disease)?
Answer: Its value is 0.88 (0.56–1.39).

Question: And the “Adjusted odds ratio (95%CI)” value [1]?
Answer: Its value is 0.32 (0.19–0.56).

Question: And the “Crude odds ratio (95%CI)” value [1]?
Answer: Its value is 0.41 (0.26–0.65).

Question: And the “Crude odds ratio (95%CI)” value (factor: Liver cirrhosis/chronic hepatic dysfunction)?
Answer: Its value is 0.80 (0.48–1.31).

Question: What about the “Crude odds ratio (95%CI)” value (factor: MRSA infections) of the same substance?
Answer: Its value is 0.98 (0.66–1.45).

Question: What about the “Crude odds ratio (95%CI)” value (factor: Malignant tumor) of the same substance?
Answer: The value was 0.79 (0.55–1.12).

Question: And the “Adjusted odds ratio (95%CI)” value (factor: Serum albumin < 2.5 g/dL (median), hypoalbuminemia)?
Answer: Its value is 0.24 (0.15–0.37).

Question: What about the “Crude odds ratio (95%CI)” value (factor: Serum albumin < 2.5 g/dL (median)) of the same substance?
Answer: Its value is 0.33 (0.23–0.47).

Question: What about the “Crude odds ratio (95%CI)” value (factor: Sex (male)) of the same substance?
Answer: Its value is 0.85 (0.60–1.22).

Question: What about the “Crude odds ratio (95%CI)” value (factor: Steroid use) of the same substance?
Answer: The value was 0.88 (0.55–1.40).

Question: What about the “Adjusted odds ratio (95%CI)” value (factor: Surgery within 28 days) of the same substance?
Answer: Its value is 0.47 (0.30–0.74).

Question: What about the “Crude odds ratio (95%CI)” value (factor: Surgery within 28 days) of the same substance?
Answer: Its value is 0.59 (0.40–0.86).

Question: What about the “Adjusted odds ratio (95%CI)” value [2] of the same substance?
Answer: Its value is 0.54 (0.32–0.92).

Question: And the “Crude odds ratio (95%CI)” value [2]?
Answer: The value was 0.70 (0.43–1.03).

Question: What about the “Crude odds ratio (95%CI)” value (factor: Transplantation) of the same substance?
Answer: Its value is 2.79 (0.56–13.97).

Question: What about the “Adjusted odds ratio (95%CI)” value (factor: Ventilator use) of the same substance?
Answer: Its value is 1.51 (0.68–3.36).

Question: And the “Crude odds ratio (95%CI)” value (factor: Ventilator use)?
Answer: The value was 0.58 (0.37–0.93).

Question: And the “Adjusted odds ratio (95%CI)” value [3]?
Answer: The value was 1.15 (0.68–1.95).

Question: And the “Crude odds ratio (95%CI)” value [3]?
Answer: The value was 1.43 (1.01–2.04).

Question: What about the “Median Cmin” value (serum albumin 2.0–2.5 g/dL group) of the same substance?
Answer: Its value is 18200 ng/mL.

Question: And the “Median Cmin” value (serum albumin 2.5–3.0 g/dL group)?
Answer: The value was 21600 ng/mL.

Question: What about the “Median Cmin” value (serum albumin 3.0–3.5 g/dL group) of the same substance?
Answer: Its value is 22000 ng/mL.

Question: And the “Median Cmin” value (serum albumin < 2.0 g/dL group)?
Answer: Its value is 16200 ng/mL.

Question: And the “Median Cmin” value (serum albumin ≥3.5 g/dL group)?
Answer: The value was 25700 ng/mL.

Question: What about the “Teicoplanin max Cmin” value (single patient No 1, total dose initial 3 days 31.2 mg/kg, eGFR 38, serum albumin 2.4 g/dL) of the same substance?
Answer: Its value is 23700 ng/mL.

Question: What about the “Teicoplanin max Cmin” value (single patient No 2, total dose initial 3 days 44.4 mg/kg, eGFR 56, serum albumin […]) of the same substance?
Answer: Its value is 11000 ng/mL.

Question: And the “Teicoplanin max Cmin” value (single patient No 3, total dose initial 3 days 34.5 mg/kg, eGFR 20, serum albumin […])?
Answer: Its value is 20000 ng/mL.

Question: What about the “Teicoplanin max Cmin” value (single patient No 4, total dose initial 3 days 38.8 mg/kg, eGFR 43, serum albumin 2.6 g/dL) of the same substance?
Answer: Its value is 26600 ng/mL.

Question: And the “Teicoplanin max Cmin” value (single patient No 5, total dose initial 3 days 33.8 mg/kg, eGFR 23, serum albumin 2.8 g/dL)?
Answer: Its value is 11000 ng/mL.

Question: What about the “Patients with teicoplanin initial Cmin ≥20 μg/mL” value (with factor: APACHE II score ≥ 15, 54/130 patients) of the same substance?
Answer: The value was 54/130 (41.5%).

Question: And the “Patients with teicoplanin initial Cmin ≥20 μg/mL” value (with factor: Age (> 65 years), 162/318 patients)?
Answer: The value was 162/318 (50.9%).

Question: And the “Patients with teicoplanin initial Cmin ≥20 μg/mL” value (with factor: Anticancer therapy, 26/47 patients)?
Answer: The value was 26/47 (55.3%).

Where two headings read alike, the source gives them in different places.
